Columns and labels:
[1] = target: JAK2 (recombinant purified GST-tagged catalytic domain) (Homo sapiens (Human), UniProt O60674); assay: biochemical;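 also: biochemical JAK kinase assay with HTRF detection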
[2] = target: JAK1 (recombinant purified GST-tagged catalytic domain) (Homo sapiens (Human), UniProt P23458); assay: biochemical;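 also: biochemical assay with HTRF read-out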

The chains behind the UniProt entries cited, without tags or fusion partners. Residues count along the entry.
UniProt O60674, 849-1124: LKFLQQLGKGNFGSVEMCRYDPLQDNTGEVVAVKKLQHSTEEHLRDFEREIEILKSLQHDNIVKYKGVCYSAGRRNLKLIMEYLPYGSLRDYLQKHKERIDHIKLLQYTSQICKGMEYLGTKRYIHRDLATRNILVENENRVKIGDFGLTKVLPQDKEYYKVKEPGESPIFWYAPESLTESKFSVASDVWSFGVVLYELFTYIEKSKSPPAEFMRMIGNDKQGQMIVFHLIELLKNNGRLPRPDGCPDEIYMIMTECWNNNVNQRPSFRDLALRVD
UniProt P23458, 875-1153: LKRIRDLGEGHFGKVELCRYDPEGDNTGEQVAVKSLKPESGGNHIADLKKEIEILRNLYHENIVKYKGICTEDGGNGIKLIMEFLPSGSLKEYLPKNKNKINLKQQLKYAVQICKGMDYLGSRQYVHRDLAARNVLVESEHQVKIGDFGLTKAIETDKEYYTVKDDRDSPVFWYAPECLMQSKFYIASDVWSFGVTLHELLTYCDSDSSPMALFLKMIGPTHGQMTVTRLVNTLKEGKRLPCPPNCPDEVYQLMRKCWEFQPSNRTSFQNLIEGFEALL

IC50 [1] [nM]	IC50 [2] [nM]	SMILES
17	–	C[C@@]1(O)CC[C@H](n2cc(C(N)=O)c(Nc3ccc(Cl)cc3)n2)[C@@H](C#N)C1 (single isomer, unassigned) [Example 32-13, 3-[(4-chlorophenyl)amino]-1-[(1S,2S,4R or 1R,2R,4S)-2-cyano-4-hydroxy-4-methylcyclohexyl]-1H-pyrazole-4-carboxamide]
1	–	C[C@]1(O)CC[C@H](n2cc(C(N)=O)c(Nc3ccc([C@@](C)(O)C(F)(F)F)cc3)n2)[C@@H](C#N)C1 (single isomer, unassigned) [Example 32-15, 1-[(1S,2S,4S or 1R,2R,4R)-2-cyano-4-hydroxy-4-methylcyclohexyl]-3-({4-[(1R or 1S)-2,2,2-trifluoro-1-hydroxy-1-methylethyl]phenyl}amino)-1H-pyrazole-4-carboxamide]
19	–	CC(C)NC(=O)O[C@@H]1CCC(n2cc(C(N)=O)c(Nc3ccc(F)cc3)n2)[C@@H](C#N)C1 (mixture of isomers) [Example 34-4, (1R,3S,4S and 1S,3R,4R)-4-{4-carbamoyl-3-[(4-fluorophenyl)amino]-1H-pyrazol-1-yl}-3-cyanocyclohexyl propan-2-ylcarbamate]
73	–	N#C[C@H]1C[C@@](O)(C2CC2)CC[C@@H]1n1cc(C(N)=O)c(Nc2ccc(Cl)cc2)n1 (single isomer, unassigned) [Example 32-14, 3-[(4-chlorophenyl)amino]-1-[(1S,2S,4R or 1R,2R,4S)-2-cyano-4-cyclopropyl-4-hydroxycyclohexyl]-1H-pyrazole-4-carboxamide]
60	–	N#C[C@@H]1C[C@H](C(=O)N2CCC(F)(F)C2)CC[C@H]1n1cc(C(N)=O)c(Nc2ccc(Cl)cc2)n1 (single isomer, unassigned) [Example 35-32, 3-[(4-chlorophenyl)amino]-1-{(1R,2R,4R or 1S,2S,4S)-2-cyano-4-[(3,3-difluoropyrrolidin-1-yl)carbonyl]cyclohexyl}-1H-pyrazole-4-carboxamide]
6	–	CC(C)(CF)c1ccc(Nc2nn([C@H]3CC[C@H](O)C[C@@H]3C#N)cc2C(N)=O)cc1 (single isomer, unassigned) [Example 33-21, 1-[(1S,2S,4S or 1R,2R,4R)-2-cyano-4-hydroxycyclohexyl]-3-{[4-(2-fluoro-1,1-dimethylethyl)phenyl]amino}-1H-pyrazole-4-carboxamide]

The remaining lines, values behind:

SMILES	IC50 [1] [nM]	IC50 [2] [nM]
N#C[C@H]1C[C@@H](N2CC(O)C2)CC[C@@H]1n1cc(C(N)=O)c(Nc2ccc(S(=O)(=O)C(F)(F)F)cc2)n1 (single isomer, unassigned) [Example 28-151, 1-[(1S,2S,4S or 1R,2R,4R)-2-cyano-4-(3-hydroxyazetidin-1-yl)cyclohexyl]-3-({4-[(trifluoro-methyl)sulfonyl]phenyl}amino)-1H-pyrazole-4-carboxamide]	1	–
C[C@@H]1C[C@@H](C)N1[C@H]1CC[C@H](n2cc(C(N)=O)c(Nc3ccc(C(F)(F)F)cc3)n2)[C@@H](C#N)C1 (single isomer, unassigned) [Example 28-9, 1-{(1S,2S,4S or 1R,2R,4R)-2-cyano-4-[(2R,4R or 2S,4S)-2,4-dimethylazetidin-1-yl]cyclohexyl}-3-{[4-(trifluoromethyl)phenyl]amino}-1H-pyrazole-4-carboxamide]	84	–
CN[C@H]1CCC(n2cc(C(N)=O)c(Nc3ccc(S(=O)(=O)C(F)(F)F)cc3)n2)[C@@H](C#N)C1 (mixture of isomers) [Example 27-9, 1-[(1S,2S,4S and 1R,2R,4R)-2-cyano-4-(methylamino)cyclohexyl]-3-({4-[(trifluoromethyl)sulfonyl]phenyl}amino)-1H-pyrazole-4-carboxamide]	51	–
CN(CCC(F)(F)F)[C@@H]1CC[C@H](n2cc(C(N)=O)c(Nc3ccc(S(=O)(=O)C(F)(F)F)cc3)n2)[C@@H](C#N)C1 (single isomer, unassigned) [Example 28-170, 1-{(1S,2S,4R or 1R,2R,4S)-2-cyano-4-[methyl(3,3,3-trifluoropropyl)amino]cyclohexyl}-3-({4-[(trifluoromethyl)sulfonyl]phen-yl]amino)-1H-pyrazole-4-carboxamide]	180	–
C[C@](O)(c1ccc(Nc2nn([C@H]3CCCC[C@@H]3C#N)cc2C(N)=O)cn1)C(F)F (single isomer, unassigned) [Example 17-39, 1-[(1S,2S or 1R,2R)-2-cyanocyclohexyl]-3-({6-[(1S or 1R)-2,2-difluoro-1-hydroxy-1-methylethyl]pyridin-3-yl}amino)-1H-pyrazole-4-carboxamide]	3	–
N#C[C@H]1CCCC[C@@H]1n1cc(C(N)=O)c(Nc2cc(F)cc(Cl)c2)n1 (single isomer, unassigned) [Example 17-51, 3-[(3-chloro-5-fluorophenyl)amino]-1-[(1S,2S or 1R,2R)-2-cyanocyclohexyl]-1H-pyrazole-4-carboxamide]	42	–
N#C[C@H]1C[C@@H](N2CC(O)(C(F)(F)F)C2)CCC1n1cc(C(N)=O)c(Nc2ccc(Cl)cc2)n1 (single isomer, unassigned) [Example 28-213, 3-[(4-chlorophenyl)amino]-1-{(1S,2S,4S or 1R,2R,4R)-2-cyano-4-[3-hydroxy-3-(trifluoromethyl)azetidin-1-yl]cyclohexyl}-1H-pyrazole-4-carboxamide]	12	–
N#C[C@H]1C[C@H](O)CCC1n1cc(C(N)=O)c(Nc2ccnc(F)c2)n1 (single isomer, unassigned) [Example 25-25, 1-[(1S,2S,4R or 1R,2R,4S)-2-cyano-4-hydroxycyclohexyl]-3-[2-fluoropyridin-4-yl)amino]-1H-pyrazole-4-carboxamide]	210	–
CN(CCC(F)(F)F)[C@H]1CC[C@H](n2cc(C(N)=O)c(Nc3ccc(S(=O)(=O)C(F)(F)F)cc3)n2)[C@@H](C#N)C1 (single isomer, unassigned) [Example 28-171, 1-{(1S,2S,4S or 1R,2R,4R)-2-cyano-4-[methyl(3,3,3-tri-fluoropropyl)amino]cyclohexyl}-3-({4-[(trifluoromethyl)sulfonyl]phen-yl}amino)-1H-pyrazole-4-carboxamide]	31	–
N#C[C@H]1CC(NCCO)CCC1n1cc(C(N)=O)c(Nc2ccc(S(=O)(=O)C(F)(F)F)cc2)n1 (mixture of isomers) [Example 27-15, 1-{(1S,2S and 1R,2R)-2-cyano-4-[(2-hydroxyethyl)amino]cyclohexyl}-3-({4-[(trifluoromethyl)sulfonyl]phenyl)amino)-l/f-pyrazolc-4-carboxamide]	11	–
N#C[C@@H]1CCCC[C@H]1n1cc(C(N)=O)c(Nc2ccc(F)nc2)n1 (single isomer, unassigned) [Example 17-23, 1-[(1R,2R or 1S,2S)-2-cyanocyclohexyl]-3-[(6-fluoropyridin-3-yl)amino]-1H-pyrazole-4-carboxamide]	55	–
C[C@](O)(c1ccc(Nc2nn([C@H]3CCCC[C@@H]3C#N)cc2C(N)=O)cn1)C(F)(F)F (single isomer, unassigned) [Example 17-34, 1-[(1S,2S or 1R,2R)-2-cyanocyclohexyl]-3-({6-[(1S or 1R)-2,2,2-trifluoro-1-hydroxy-1-methylethyl]pyridin-3-yl}amino)-1H-pyrazole-4-carboxamide]	11	–
CCNC1CCC(n2cc(C(N)=O)c(Nc3ccc(S(=O)(=O)C(F)(F)F)cc3)n2)[C@@H](C#N)C1 (mixture of isomers) [Example 27-5, 1-[(1S,2S and 1R,2R)-2-cyano-4-(ethylamino)cyclohexyl]-3-({4-[(trifluoromethyl)sulfonyl]phenyl}amino)-1H-pyrazole-4-carboxamide]	–	0.2
